Results: patent US9249087B2, “HDAC inhibitors and therapeutic methods using the same” (THE BOARD OF TRUSTEES OF THE UNIVERSITY OF ILLINOIS, priority 2011, dated 2016)

By UniProt entry, the sequences of proteins in these tests, tags left out. Where a name states a change or a piece, a line headed by the entry shows the natural chain unless it says otherwise.
UniProt Q96DB2: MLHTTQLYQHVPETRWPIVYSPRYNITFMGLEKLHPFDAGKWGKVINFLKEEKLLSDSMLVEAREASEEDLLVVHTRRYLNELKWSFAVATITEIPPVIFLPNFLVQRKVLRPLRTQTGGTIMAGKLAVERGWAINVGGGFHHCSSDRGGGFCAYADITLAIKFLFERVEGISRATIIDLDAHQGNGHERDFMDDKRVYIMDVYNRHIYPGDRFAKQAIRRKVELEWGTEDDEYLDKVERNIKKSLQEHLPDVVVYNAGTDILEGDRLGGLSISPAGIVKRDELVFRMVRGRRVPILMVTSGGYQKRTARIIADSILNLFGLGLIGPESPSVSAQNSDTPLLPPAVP

Molecular target: HDAC11 (Homo sapiens (Human), UniProt Q96DB2)
Experiment: HDAC11 fluorogenic peptide deacetylation inhibition assay
Format: biochemical
Settings: average of two experiments; read-out: HDAC Isoform IC50 (μM) 11

## O=C(CCCCCCC(=O)Nc1ccc([C@H]2O[C@@H](CSc3nc(-c4ccccc4)c(-c4ccccc4)o3)C[C@@H](c3ccc(CO)cc3)O2)cc1)NO [Tubacin]
  IC50: 3.79 µM
